Measured values reported in patent US7285560B2, “Indole derivatives or benzimidazole derivatives for modulating IκB kinase” (Sanofi-Aventis Deutschland GmbH, priority 2002, dated 2007).

Sequences of proteins named here, by UniProt entry; tags and fusion partners are left off. A change or cut given only in a name is not applied to a line headed by its entry.
UniProt O14920: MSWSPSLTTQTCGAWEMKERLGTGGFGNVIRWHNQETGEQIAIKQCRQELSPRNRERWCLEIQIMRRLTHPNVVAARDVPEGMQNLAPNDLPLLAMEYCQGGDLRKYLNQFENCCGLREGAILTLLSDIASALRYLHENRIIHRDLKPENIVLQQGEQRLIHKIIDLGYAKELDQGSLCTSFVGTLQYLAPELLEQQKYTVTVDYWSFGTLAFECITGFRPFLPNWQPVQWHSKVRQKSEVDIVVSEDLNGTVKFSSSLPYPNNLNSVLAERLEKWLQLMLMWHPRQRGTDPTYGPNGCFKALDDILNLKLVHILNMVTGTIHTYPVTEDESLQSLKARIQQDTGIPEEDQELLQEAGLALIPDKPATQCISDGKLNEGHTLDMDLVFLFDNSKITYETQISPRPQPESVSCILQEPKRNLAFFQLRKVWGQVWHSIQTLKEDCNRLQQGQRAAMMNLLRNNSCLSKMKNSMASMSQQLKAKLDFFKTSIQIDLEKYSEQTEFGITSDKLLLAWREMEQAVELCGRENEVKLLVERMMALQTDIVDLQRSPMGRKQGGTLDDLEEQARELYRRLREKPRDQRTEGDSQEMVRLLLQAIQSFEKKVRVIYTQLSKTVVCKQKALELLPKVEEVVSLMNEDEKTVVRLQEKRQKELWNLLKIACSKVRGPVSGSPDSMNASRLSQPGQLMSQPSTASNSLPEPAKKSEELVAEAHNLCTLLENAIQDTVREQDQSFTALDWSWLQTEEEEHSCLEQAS
UniProt O15111: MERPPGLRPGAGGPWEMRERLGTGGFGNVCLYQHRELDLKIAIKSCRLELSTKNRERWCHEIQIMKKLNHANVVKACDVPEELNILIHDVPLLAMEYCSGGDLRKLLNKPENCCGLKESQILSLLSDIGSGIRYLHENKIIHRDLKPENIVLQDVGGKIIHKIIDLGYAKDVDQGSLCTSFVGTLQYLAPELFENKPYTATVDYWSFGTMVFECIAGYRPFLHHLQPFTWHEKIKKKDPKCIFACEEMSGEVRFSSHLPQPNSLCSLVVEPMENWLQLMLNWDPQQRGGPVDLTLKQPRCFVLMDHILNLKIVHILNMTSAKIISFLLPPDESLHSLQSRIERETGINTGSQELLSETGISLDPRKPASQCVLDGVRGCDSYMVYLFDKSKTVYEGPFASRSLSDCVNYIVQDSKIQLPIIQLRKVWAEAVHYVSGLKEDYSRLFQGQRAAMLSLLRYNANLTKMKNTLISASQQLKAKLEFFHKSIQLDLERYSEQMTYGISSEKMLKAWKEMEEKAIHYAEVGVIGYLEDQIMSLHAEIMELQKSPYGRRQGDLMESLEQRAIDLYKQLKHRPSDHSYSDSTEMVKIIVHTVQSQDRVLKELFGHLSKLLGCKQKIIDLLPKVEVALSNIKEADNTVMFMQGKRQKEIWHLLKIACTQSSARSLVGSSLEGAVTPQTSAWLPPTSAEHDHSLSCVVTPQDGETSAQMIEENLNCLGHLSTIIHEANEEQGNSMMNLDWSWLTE

Legend:
IκB kinase = target: T1, IκB kinase (Homo sapiens, UniProt O14920+O15111); assay: IκB kinase ELISA; format: biochemical
T1 construct: endogenous in cells; host or cells: HeLa S3 (S100 extract; ammonium sulfate cut, Superose-6 fractions at 670 kDa)

protein tyrosine kinase = assay: Protein tyrosine kinase assay (Upstate test kit); format: biochemical
Method: As examples of the specificities of the IκB kinase inhibitors which had been discovered, their IC50 values were determined in the case of the kinase enzyme protein tyrosine kinase.
Protein tyrosine kinase activity was determined using the appropriate test kit from Upstate Biotechnologie in accordance with the manufacturer's instructions and at an ATP concentration of 50 μM. As a difference from the manufacturer's method, Multi-Screen plates (Millipore; phosphocellulose MS-PH, cat. MAPHNOB10, or Durapore PVDF, cat. MADVNOB 50), were used, together with the appropriate exhaust system, instead of phospho-cellulose filters. Poly (Glu, Tyr 4:1) (Sigma cat. P0275) was used as the test kit substrate at a test concentration of 1 mg/ml. The plates were then measured in a Wallac MicroBeta scintillation counter. 100 μM of the test substance were used in each case.
The test substance was tested in a duplicate determination. The IC50 calculations were performed using the GraFit 3.0 software package.

IC50 (IκB kinase): 50 nM
Specificity ratio (protein tyrosine kinase; IC50 protein tyrosine kinase relative to IκB kinase, > denotes better than): 1650
ratio of the IC50 values for protein tyrosine kinase relative to IκB kinase (protein tyrosine kinase; for the comparison compound the IκB kinase IC50 is taken from WO 01/30774): 1650
SMILES: CNc1nccc(-c2cc3cc(C(=O)N[C@@H](CN(c4ccccc4)c4ccccc4)c4n[nH]c(=O)o4)ccc3[nH]2)n1 [Example 28, N-[(S)-2-Diphenylamino-1-(5-oxo-4,5-dihydro[1,3,4]oxadiazol-2-yl)ethyl]-2-(2-methylaminopyrimidin-4-yl)-1H-indole-5-carboxamide]
